Chains of the proteins cited; added tags and fusions are not shown.
UniProt P42336, whole entry: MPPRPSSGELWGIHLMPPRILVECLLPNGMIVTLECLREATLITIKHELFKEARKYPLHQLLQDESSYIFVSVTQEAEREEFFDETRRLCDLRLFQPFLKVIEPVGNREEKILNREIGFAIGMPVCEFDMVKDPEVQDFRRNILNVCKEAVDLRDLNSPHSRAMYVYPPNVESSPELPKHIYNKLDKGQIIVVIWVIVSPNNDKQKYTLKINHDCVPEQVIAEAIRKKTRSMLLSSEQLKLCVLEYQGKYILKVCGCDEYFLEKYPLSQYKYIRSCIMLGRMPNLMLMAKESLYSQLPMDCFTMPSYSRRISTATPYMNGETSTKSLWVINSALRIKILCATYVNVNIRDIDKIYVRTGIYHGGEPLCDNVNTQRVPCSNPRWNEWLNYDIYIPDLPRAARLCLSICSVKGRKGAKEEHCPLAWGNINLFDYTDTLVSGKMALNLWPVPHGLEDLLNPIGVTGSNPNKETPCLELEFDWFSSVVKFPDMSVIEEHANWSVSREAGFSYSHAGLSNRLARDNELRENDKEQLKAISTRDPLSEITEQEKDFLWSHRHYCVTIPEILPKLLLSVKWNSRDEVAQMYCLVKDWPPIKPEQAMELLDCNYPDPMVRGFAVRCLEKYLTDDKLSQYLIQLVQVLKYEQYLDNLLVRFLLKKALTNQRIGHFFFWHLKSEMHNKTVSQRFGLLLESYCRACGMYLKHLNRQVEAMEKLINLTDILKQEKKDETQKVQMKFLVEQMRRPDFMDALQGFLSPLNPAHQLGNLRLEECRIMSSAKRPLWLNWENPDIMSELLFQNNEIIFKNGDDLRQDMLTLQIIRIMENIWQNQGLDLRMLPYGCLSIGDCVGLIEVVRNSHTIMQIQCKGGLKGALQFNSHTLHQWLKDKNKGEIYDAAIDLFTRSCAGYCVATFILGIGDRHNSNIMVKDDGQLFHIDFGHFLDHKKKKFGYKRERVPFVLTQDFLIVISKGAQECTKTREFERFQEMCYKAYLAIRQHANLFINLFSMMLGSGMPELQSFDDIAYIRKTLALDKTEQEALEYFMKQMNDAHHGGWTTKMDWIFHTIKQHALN

According to US10329299B2, “Heterocyclic compounds and uses thereof” (Infinity Pharmaceuticals, Inc., priority 2013, dated 2019):

Biological target: α isoform of human Class I PI3 kinases (Homo sapiens (Human), UniProt P42336)
Assay: PI3-Kinase Promega ADP-Glo Max assay, α isoform
Format: biochemical
Conditions: read-out: PI3K α IC50

IC50: 5 to 10 µM
Compound: C[C@H](NC(=O)c1c(N)nn2cccnc12)c1cc2cccc(C#Cc3cnn(C)c3)c2c(=O)n1-c1ccccc1 [Compound 21]
